Sampled rows, rich in hits. Any-hit rate of the full collection: about 3.7%.
Nrf2 block = blocks Nrf2 signaling; A549 ARE-Fluc reporter, luciferase luminescence, 18-24 h; AID 504444; hit rate 2.1% among 360,000; Potency, µM (highest dose often 46 µM), actives largely listed as inhibitors; further: nearly all actives have a fitted effect of over 60% in size
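Quantitative HTS in A549 cells stably bearing an antioxidant response element-firefly luciferase construct. Inhibition of Nrf2-driven transcription was scored by luminescence after 18-24 h of compound exposure at 37 °C.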
Nrf2 ARE act = activators of Nrf2 (ARE) signaling | AREc32 ARE-luciferase reporter (MCF7-derived line), luminescence, 24 h | Potency, µM (highest dose often 46.1 µM), actives largely listed as activators | hit rate 0.31% among 410,000; further: nearly all actives have a fitted effect of over 65% in size
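Cells of the AREc32 ARE-luciferase line are plated in OPTI-MEM containing 5% FBS and left overnight at 37 deg C. Compounds are pinned in, incubation continues 24 hr, and firefly luciferase signal is then measured.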
miR-21 reporter = miR-21 reporter, rising signal | AID 2288 | HeLa miR-21 FLuc reporter, luciferase, 48 h | 340,000 tested, under 10 active | Potency, µM (titrated, usually from 38.3 µM); active = well fitted rising curve with a large enough effect; inconclusive = small, poorly fitted or top-dose-only effect; inactive = no such curve, though single readings can be large or run the other way;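 also: miR-21 action dims this reporter so a rising signal means less miR-21 action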
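Using DMEM plus 10% FBS, HeLa miR-21-FLuc cells are incubated with test compounds (final up to about 40uM) for 48 hours; firefly luciferase signal is then imaged following reagent-mediated lysis.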
A549 tox = A549 cytotoxicity, counter-screen for Nrf2 inhibitors; A549 ARE-Fluc cells, CellTiter-Fluor viability, 18-24 h; Potency, µM (top dose mostly 46 µM), usual class: inhibitors; hit rate 0.16% among 390,000
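A549 ARE-Fluc cells in 5% FBS OPTI-MEM, 5000 cells/well, rested 2 h then exposed to compounds in concentration-response for 18-24 h at 37 °C. Viability by CellTiter-Fluor fluorescence (Ex 405/Em 525) after 30 min; luciferase luminescence (BugLite, 15 min, RT) read afterwards.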
TCR activator = activates T cell receptor signaling; primary human leukocytes, anti-CD3, IL-2 HTRF, 48 h; Potency, µM (titrated, usually from 9.22 µM), actives largely listed as activators; AID 504894; 330,000 tested, under 10 active
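IL-2 produced over 48 hr by a-CD3 bead-stimulated primary human leukocytes exposed to compounds was detected with a homogeneous time-resolved FRET immunoassay, 665nm acceptor signal after 320nm excitation.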
ClpP mod = qHTS Assay for Activators of ClpP | ATP-dependent Clp protease proteolytic subunit (Bacillus subtilis (strain 168)), P80244 | purified B. subtilis ClpP, FRET peptide cleavage, 20 min | Potency, µM (highest dose often 57.5 µM) | hit rate 1.9% among 340,000 | AID 651965, 2013; active means well fitted falling curve with a large enough effect; inconclusive means small, poorly fitted or top-dose-only effect; inactive means no such curve, though single readings can be large or run the other way; further: the source files actives as falling curves though it sought activators and does not explain the sign; nearly all actives have a fitted effect of over 65% in size
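Buffer: 100 mM Tris/HCl pH8, 100 mM KCl, 0.05% low protease BSA, 2.5% glycerol, 0.01% Tween-20. ClpP 10 microg/mL final; 20 min RT; delta FRET normalized to ADEP and DMSO controls.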
Numbers stand for hits; i = inactive; ? = inconclusive; nt = not tested or not shown; [ ] = remark or other dose. Unless noted, the call rests on the fitted dose curve; in most records, active means well fitted curve in the direction sought with a large enough effect; inconclusive means small, poorly fitted or top-dose-only effect, or another doubt; inactive means no such curve, though single readings can be large; an effect the other way counts as inactive or inconclusive.

SMILES	Nrf2 block	Nrf2 ARE act	miR-21 reporter	A549 tox	TCR activator	ClpP mod
CC12CCC(C(=O)N3CCN(C(c4ccccc4)c4ccccc4)CC3)(OC1=O)C2(C)C (stereo unspecified)	23µM	i	i	i	i	i
CCc1ccc(OCC2c3cc(OC)c(OC)cc3CCN2C(=S)NCCOC)cc1 (stereo unspecified)	i	i	i	i	i	i
CCc1ccc(OCC2c3cc(OC)c(OC)cc3CCN2C(=S)NC)cc1 (stereo unspecified)	18µM	i	i	i	i	nt
CC[N+]1(CC(=O)c2ccc(Cl)cc2)CCCCC1	nt	nt	nt	nt	nt	i
CC(C)(C)c1cc(NCCCn2ccnc2)n2ncc(-c3ccc(Cl)cc3)c2n1	i	i	i	i[1.84 µM]	nt	14µM
CC(C)(C)c1ccc(CSc2nc(N)cc(=O)[nH]2)cc1	?	i	i	i	i	i
CN(C)c1nc(-c2ccccc2)cc(C(F)(F)F)c1C#N	?	i	i	i	i	32µM
CCCSc1nc(-c2ccccc2)cc(C(F)(F)F)c1C#N	nt	11µM	i	i	nt	?
CN(C)c1nc(-c2cccs2)cc(C(F)(F)F)c1C#N	i	i	i	i	i	nt
N#Cc1c(C(F)(F)F)cc(-c2ccccc2)nc1SCCN1CCOCC1	?	i	i	i	nt	i
CCOc1ccc(Cl)cc1CNCCCSc1nc(C)cc(C)n1	?	i	i	i	i	i
CCn1c(N2CCN(C(=S)Nc3ccc(OC)cc3)CC2)nc2ccccc21	16µM	i	i	i	i	i
CCn1c(N2CCN(C(=S)NC)CC2)nc2ccccc21	i	i	i	i	i	i
CCn1c2ccccc2c2cc(/C=N/NC(=O)c3ccccc3C)ccc21	i	i	i	i	i	13µM
CCn1c2ccccc2c2cc(/C=N/n3cnnc3)ccc21	i	i	i	i	nt	25µM
CCn1c2ccccc2c2cc(/C=N/n3cn[nH]c3=S)ccc21	?	i	i	i	i	i
COc1ccc2ccccc2c1/C=N/n1cnnc1	i	i	i	i	i	i
CCn1c(/C=N/n2cnnc2)nc2ccccc21	i	i	i	i	i	28µM
COCCCNC(=O)c1ccc2nc3ccccc3c(=O)n2c1	nt	i	i	i	i	16µM
O=C(CSc1nncc2ccccc12)N1CCCCC1	10µM	i	i	i	i	nt
CCc1c(C)sc2c1CCN(C(=O)Nc1cc(C)ccc1C)C2c1ccc(OC)cc1 (stereo unspecified)	nt	i	i	i	nt	i
O=C(Nc1cccc(F)c1)C1CCCN(C(=O)c2ccc(Cl)cc2)C1 (stereo unspecified)	7.3µM	i	nt	i	i	i
O=C(Nc1ccccc1)C1CCCN(C(=O)c2ccc(Cl)cc2)C1 (stereo unspecified)	?	i	i	i	i	nt
Cc1ccc(NC(=O)c2ccccc2NS(=O)(=O)c2ccc(F)cc2)cc1S(=O)(=O)N1CCCCC1	23µM	i	?	?	i	32µM
O=C(Nc1cccc(S(=O)(=O)N2CCCCC2)c1)c1ccccc1NS(=O)(=O)c1ccc(F)cc1	?	i	?	i	i	32µM
SMILES	Nrf2 block	Nrf2 ARE act	miR-21 reporter	A549 tox	TCR activator	ClpP mod
O=C1CCC(C(=O)Nc2cccc(S(=O)(=O)Nc3ccccc3F)c2)=NN1	26µM	i	nt	i	i	nt
O=C(Nc1cccc(S(=O)(=O)Nc2ccccc2F)c1)c1ccco1	?	i	nt	i	i	i
Cn1c(=O)c2c(-c3ccccc3)n(-c3cccc(C#N)c3)cc2n(C)c1=O	i	i	i	i	nt	i
COCCN(C(=O)c1ccc(C)c(S(=O)(=O)N2CCOCC2)c1)c1c(N)n(CC(C)C)c(=O)[nH]c1=O	i	i	nt	i	i	i
CCCN1CNc2c(c(=O)[nH]c(=S)n2CCc2ccc(OC)cc2)C1	i	nt	nt	i	nt	i
OC(Cc1cccc(C=NN2CCOCC2)n1)(C(F)(F)F)C(F)(F)F	nt	i	nt	nt	nt	i
COc1ccccc1N1CCN(S(=O)(=O)CCNC(=O)c2cccs2)CC1	nt	i	nt	nt	nt	i
O=C(Nc1cccc(C(F)(F)F)c1)C1CCN(S(=O)(=O)c2ccc(N3CCCC3=O)cc2)CC1	13µM	i	?	?	i	i
O=C(Nc1cccc(S(=O)(=O)N2CCCCCC2)c1)C1CCN(C(=O)c2ccc(F)cc2)CC1	26µM	i	nt	i	i	i
Cn1c2cc(CO)sc2c2cnn(Cc3ccccc3F)c(=O)c21	i	nt	nt	i	nt	nt
O=C(CCCCn1c(=O)c2ccccc2n(Cc2ccc(Cl)cc2)c1=O)NCc1ccccc1Cl	?	i	i	i	nt	i
COc1ccc(CN(C)CC(=O)Nc2ccccc2-c2ccccc2)c(OC)c1	?	i	i	i	i	nt
COc1ccccc1CN(C)CC(=O)Nc1ccccc1-c1ccccc1	23µM	i	i	?	i	nt
COc1ccc(-c2sc3ccc(N4CCOCC4)cc3c2-c2ccc(OC)c(F)c2)cc1	i	i	i	i	i	i
N#Cc1c[nH]n2c(NC3CCCCC3)c(-c3ccc(F)cc3)nc12	i	i	i	i	nt	i
COC(=O)c1[nH]c2ccc(C)cc2c1NC(=O)CN1CCCC(C)(C)C1	?	i	i	i	i	18µM
CCOC(=O)c1[nH]c2ccc(OCC)cc2c1NC(=O)CN1CCN(c2ccccn2)CC1	?	i	i	i	i	18µM
COC(=O)c1[nH]c2ccc(C)cc2c1NC(=O)CN1CCc2cc(OC)c(OC)cc2C1	?	i	i	i	i	?
CCOC(=O)c1[nH]c2ccc(OCC)cc2c1NC(=O)CN1CCCC(C)C1 (stereo unspecified)	nt	i	i	i	i	14µM
CCOC(=O)c1[nH]c2ccc(C)cc2c1NC(=O)CN1CCCCC1	i	i	i	i	i	32µM
CCOC(=O)C1CCCN(CC(=O)Nc2c(C(=O)OC)[nH]c3ccc(Br)cc23)C1 (stereo unspecified)	i	i	i	i	i	i
CCOC(=O)c1[nH]c2cc(OC)c(OC)cc2c1N	i	i	i	i	i	?
CCOC(=O)c1[nH]c2ccc(C)cc2c1N	?	i	i	i	i	25µM
COc1ccccc1Oc1coc2c(CN3CCN(C)CC3)c(O)ccc2c1=O	i	i	i	i[1.84 µM]	nt	25µM
COc1ccccc1-c1coc2c(CN3CCN(CCO)CC3)c(O)ccc2c1=O	i	i	nt	i	i	i
COc1ccccc1-c1coc2c(CN3CCN(C)CC3)c(O)ccc2c1=O	i	i	i	i	i	7.9µM
CC(=O)N1CCSc2ccc(S(=O)(=O)Nc3ccccc3C)cc21	13µM	i	i	i	i	i
CC(=O)N1CCSc2ccc(S(=O)(=O)Nc3cccc(C)c3)cc21	?	i	i	i	i	i

High-throughput results from PubChem.
